# Membrane permeability of cyclic peptides

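The data file gives no further conditions (lipid, pH, time, direction or concentration), and values from different papers need not be comparable. The list need not hold all peptides of the study. Entries at the database's floor value (log10 P of -10) are not listed.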

PAMPA measures passive passage through an artificial lipid membrane. P is given in units of 10^-6 cm/s (from log10 values with two decimals); larger means faster passage.

structure (SMILES) | PAMPA (10^-6 cm/s)
CC(=O)N1CCC[C@H]1C(=O)N(C)[C@@H](CC(C)C)C(=O)N[C@@H]1C(=O)N[C@H](CC(C)C)C(=O)N(C)[C@@H](CC(C)C)C(=O)N[C@@H](CC(C)C)C(=O)N(C)[C@H](C)C(=O)N[C@H](CC(C)C)C(=O)N2CCC[C@H]2C(=O)O[C@@H]1C | 2.5
CC(=O)N1CCC[C@@H]1C(=O)N(C)[C@H](CC(C)C)C(=O)N[C@@H]1C(=O)N[C@H](CC(C)C)C(=O)N[C@@H](CC(C)C)C(=O)N(C)[C@@H](CC(C)C)C(=O)N(C)[C@H](C)C(=O)N[C@@H](CC(C)C)C(=O)N2CCC[C@H]2C(=O)O[C@@H]1C | 2
CC(=O)N1CCC[C@H]1C(=O)N[C@@H]1C(=O)N[C@H](CC(C)C)C(=O)N[C@H](CC(C)C)C(=O)N(C)[C@@H](CC(C)C)C(=O)N[C@@H](CC(C)C)C(=O)N[C@H](C)C(=O)N[C@@H](CC(C)C)C(=O)N2CCC[C@@H]2C(=O)O[C@@H]1C | 3.9
CC(=O)N1CCC[C@H]1C(=O)N[C@@H]1C(=O)N[C@H](CC(C)C)C(=O)N[C@H](CC(C)C)C(=O)N(C)[C@H](CC(C)C)C(=O)N[C@H](CC(C)C)C(=O)N(C)[C@H](C)C(=O)N[C@@H](CC(C)C)C(=O)N2CCC[C@@H]2C(=O)O[C@@H]1C | 3.2
CC(=O)N1CCC[C@H]1C(=O)N(C)[C@H](CC(C)C)C(=O)N[C@@H]1C(=O)N(C)[C@@H](CC(C)C)C(=O)N(C)[C@H](CC(C)C)C(=O)N(C)[C@H](CC(C)C)C(=O)N(C)[C@H](C)C(=O)N[C@H](CC(C)C)C(=O)N2CCC[C@@H]2C(=O)O[C@@H]1C | 4.3
CC(=O)N1CCC[C@@H]1C(=O)N(C)[C@H](CC(C)C)C(=O)N[C@@H]1C(=O)N[C@H](CC(C)C)C(=O)N[C@@H](CC(C)C)C(=O)N(C)[C@H](CC(C)C)C(=O)N[C@H](C)C(=O)N[C@H](CC(C)C)C(=O)N2CCC[C@@H]2C(=O)O[C@@H]1C | 0.79
CC(=O)N1CCC[C@H]1C(=O)N(C)[C@@H](CC(C)C)C(=O)N[C@@H]1C(=O)N[C@H](CC(C)C)C(=O)N(C)[C@H](CC(C)C)C(=O)N[C@H](CC(C)C)C(=O)N[C@@H](C)C(=O)N[C@H](CC(C)C)C(=O)N2CCC[C@H]2C(=O)O[C@@H]1C | 1.5
CC(=O)N1CCC[C@@H]1C(=O)N(C)[C@@H](CC(C)C)C(=O)N[C@@H]1C(=O)N[C@H](CC(C)C)C(=O)N(C)[C@H](CC(C)C)C(=O)N(C)[C@@H](CC(C)C)C(=O)N(C)[C@@H](C)C(=O)N[C@@H](CC(C)C)C(=O)N2CCC[C@H]2C(=O)O[C@@H]1C | 5
CC(=O)N1CCC[C@@H]1C(=O)N(C)[C@@H](CC(C)C)C(=O)N[C@@H]1C(=O)N[C@H](CC(C)C)C(=O)N(C)[C@@H](CC(C)C)C(=O)N(C)[C@@H](CC(C)C)C(=O)N(C)[C@@H](C)C(=O)N[C@H](CC(C)C)C(=O)N2CCC[C@H]2C(=O)O[C@@H]1C | 4
CC(=O)N1CCC[C@H]1C(=O)N(C)[C@@H](CC(C)C)C(=O)N[C@@H]1C(=O)N(C)[C@@H](CC(C)C)C(=O)N(C)[C@@H](CC(C)C)C(=O)N(C)[C@H](CC(C)C)C(=O)N(C)[C@@H](C)C(=O)N[C@@H](CC(C)C)C(=O)N2CCC[C@@H]2C(=O)O[C@@H]1C | 3.1
CC(=O)N1CCC[C@@H]1C(=O)N(C)[C@@H](CC(C)C)C(=O)N[C@@H]1C(=O)N[C@@H](CC(C)C)C(=O)N(C)[C@H](CC(C)C)C(=O)N(C)[C@@H](CC(C)C)C(=O)N(C)[C@H](C)C(=O)N[C@@H](CC(C)C)C(=O)N2CCC[C@@H]2C(=O)O[C@@H]1C | 7.4
CC(=O)N1CCC[C@@H]1C(=O)N(C)[C@@H](CC(C)C)C(=O)N[C@@H]1C(=O)N(C)[C@@H](CC(C)C)C(=O)N[C@@H](CC(C)C)C(=O)N(C)[C@@H](CC(C)C)C(=O)N(C)[C@@H](C)C(=O)N[C@H](CC(C)C)C(=O)N2CCC[C@H]2C(=O)O[C@@H]1C | 0.12
CC(=O)N1CCC[C@H]1C(=O)N(C)[C@@H](CC(C)C)C(=O)N[C@@H]1C(=O)N[C@H](CC(C)C)C(=O)N[C@H](CC(C)C)C(=O)N(C)[C@@H](CC(C)C)C(=O)N(C)[C@H](C)C(=O)N[C@H](CC(C)C)C(=O)N2CCC[C@H]2C(=O)O[C@@H]1C | 1.7
CC(=O)N1CCC[C@@H]1C(=O)N(C)[C@H](CC(C)C)C(=O)N[C@@H]1C(=O)N(C)[C@@H](CC(C)C)C(=O)N(C)[C@H](CC(C)C)C(=O)N[C@@H](CC(C)C)C(=O)N(C)[C@@H](C)C(=O)N[C@H](CC(C)C)C(=O)N2CCC[C@@H]2C(=O)O[C@@H]1C | 8.7
CC(=O)N1CCC[C@H]1C(=O)N[C@@H]1C(=O)N(C)[C@H](CC(C)C)C(=O)N(C)[C@@H](CC(C)C)C(=O)N(C)[C@@H](CC(C)C)C(=O)N[C@@H](CC(C)C)C(=O)N(C)[C@H](C)C(=O)N[C@@H](CC(C)C)C(=O)N2CCC[C@@H]2C(=O)O[C@@H]1C | 4.8
CC(=O)N[C@@H]1C(=O)N2CCC[C@H]2C(=O)N(C)[C@H](CC(C)C)C(=O)N[C@@H](CC(C)C)C(=O)N[C@H](CC(C)C)C(=O)N[C@H](CC(C)C)C(=O)N[C@@H](C)C(=O)N[C@@H](CC(C)C)C(=O)N2CCC[C@@H]2C(=O)O[C@@H]1C | 0.035
CC(=O)N1CCC[C@H]1C(=O)N(C)[C@H](CC(C)C)C(=O)N[C@@H]1C(=O)N[C@H](CC(C)C)C(=O)N(C)[C@@H](CC(C)C)C(=O)N(C)[C@@H](CC(C)C)C(=O)N[C@@H](C)C(=O)N[C@@H](CC(C)C)C(=O)N2CCC[C@@H]2C(=O)O[C@@H]1C | 5.6
CC(=O)N1CCC[C@@H]1C(=O)N(C)[C@@H](CC(C)C)C(=O)N[C@@H]1C(=O)N[C@@H](CC(C)C)C(=O)N(C)[C@@H](CC(C)C)C(=O)N[C@@H](CC(C)C)C(=O)N(C)[C@H](C)C(=O)N[C@@H](CC(C)C)C(=O)N2CCC[C@@H]2C(=O)O[C@@H]1C | 3.5
CC(=O)N1CCC[C@H]1C(=O)N(C)[C@H](CC(C)C)C(=O)N[C@@H]1C(=O)N(C)[C@H](CC(C)C)C(=O)N(C)[C@H](CC(C)C)C(=O)N[C@H](CC(C)C)C(=O)N(C)[C@@H](C)C(=O)N[C@@H](CC(C)C)C(=O)N2CCC[C@@H]2C(=O)O[C@@H]1C | 1
CC(=O)N1CCC[C@H]1C(=O)N(C)[C@H](CC(C)C)C(=O)N[C@@H]1C(=O)N[C@H](CC(C)C)C(=O)N[C@@H](CC(C)C)C(=O)N[C@@H](CC(C)C)C(=O)N(C)[C@@H](C)C(=O)N[C@H](CC(C)C)C(=O)N2CCC[C@@H]2C(=O)O[C@@H]1C | 1.2
CC(=O)N1CCC[C@H]1C(=O)N(C)[C@@H](CC(C)C)C(=O)N[C@@H]1C(=O)N[C@@H](CC(C)C)C(=O)N[C@H](CC(C)C)C(=O)N[C@H](CC(C)C)C(=O)N[C@H](C)C(=O)N[C@H](CC(C)C)C(=O)N2CCC[C@@H]2C(=O)O[C@@H]1C | 0.063
CC(=O)N1CCC[C@@H]1C(=O)N(C)[C@@H](CC(C)C)C(=O)N[C@@H]1C(=O)N[C@H](CC(C)C)C(=O)N(C)[C@H](CC(C)C)C(=O)N(C)[C@@H](CC(C)C)C(=O)N(C)[C@@H](C)C(=O)N[C@H](CC(C)C)C(=O)N2CCC[C@H]2C(=O)O[C@@H]1C | 3.8

A selection of 2 entries from above:

structure (SMILES) | PAMPA (10^-6 cm/s)
CC(=O)N1CCC[C@H]1C(=O)N[C@@H]1C(=O)N(C)[C@H](CC(C)C)C(=O)N(C)[C@@H](CC(C)C)C(=O)N(C)[C@@H](CC(C)C)C(=O)N[C@@H](CC(C)C)C(=O)N(C)[C@H](C)C(=O)N[C@@H](CC(C)C)C(=O)N2CCC[C@@H]2C(=O)O[C@@H]1C | 4.8
CC(=O)N1CCC[C@@H]1C(=O)N(C)[C@H](CC(C)C)C(=O)N[C@@H]1C(=O)N[C@H](CC(C)C)C(=O)N[C@@H](CC(C)C)C(=O)N(C)[C@@H](CC(C)C)C(=O)N(C)[C@H](C)C(=O)N[C@@H](CC(C)C)C(=O)N2CCC[C@H]2C(=O)O[C@@H]1C | 2

Collected by the curators of CycPeptMPDB (Li et al. 2023) from Kelly et al. 2021, doi:10.1021/jacs.0c06115.